The results in this text go back to patent US9481674B1, “Dihydropyrrolopyridine inhibitors of ROR-gamma” (Vitae Pharmaceuticals, Inc., priority 2016, dated 2016).

The chains behind the UniProt entries cited, without tags or fusion partners. Residues count along the entry.
UniProt P51449, 1-497 isoform 2: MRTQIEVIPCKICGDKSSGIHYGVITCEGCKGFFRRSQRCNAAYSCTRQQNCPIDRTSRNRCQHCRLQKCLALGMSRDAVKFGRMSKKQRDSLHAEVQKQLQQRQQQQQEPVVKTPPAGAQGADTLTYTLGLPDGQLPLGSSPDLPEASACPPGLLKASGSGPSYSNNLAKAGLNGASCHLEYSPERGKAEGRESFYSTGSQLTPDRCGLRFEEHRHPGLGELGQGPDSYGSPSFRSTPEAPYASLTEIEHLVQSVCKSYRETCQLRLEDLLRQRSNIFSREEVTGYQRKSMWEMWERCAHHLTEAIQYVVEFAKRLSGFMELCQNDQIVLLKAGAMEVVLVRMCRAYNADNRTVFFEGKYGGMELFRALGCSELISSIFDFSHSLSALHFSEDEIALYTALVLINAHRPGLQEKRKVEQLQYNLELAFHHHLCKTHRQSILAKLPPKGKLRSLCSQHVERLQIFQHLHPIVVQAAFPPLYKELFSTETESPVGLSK
UniProt P51449, 269-508 limits assumed: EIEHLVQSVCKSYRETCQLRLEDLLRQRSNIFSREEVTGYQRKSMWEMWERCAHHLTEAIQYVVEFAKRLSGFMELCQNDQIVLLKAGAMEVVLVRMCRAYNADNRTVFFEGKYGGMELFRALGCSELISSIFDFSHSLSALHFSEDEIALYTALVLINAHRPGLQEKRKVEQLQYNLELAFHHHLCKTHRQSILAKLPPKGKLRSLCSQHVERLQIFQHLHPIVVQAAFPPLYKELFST

Where only a bound is given, the exact number is not on record here.

For one experiment, the system named is IL-17A production. The experiment can be described thus: Human Whole Blood Assay (Assay 3). It counts as cell-based. As to conditions: read-out: 50% Human Whole Blood Assay IC50, nM* (Assay 3), 50% blood/media, CytoStim, 48 h. As to the method: Human Whole Blood Assay (Assay 3)
Compounds of the invention were tested in the human whole blood assay to measure their effects on IL-17A production as determined by cytokine secretion into 50% blood/media supernatant. Mixtures of sodium heparinized whole blood (isolated from healthy human donors) and the T cell activator CytoStim, in the presence or absence of compound, were plated in sterilized, tissue culture-treated 24-well plates. Specifically, the mixtures in each well were as follows: (1) 500 μL of whole blood, (2) 250 μL of compound diluted into RPMI-1640 media containing 10% HyClone™ FCS (Thermo Fisher Scientific, Waltham, Mass.), Gibco® Pen/Strep and Gibco® NEAA (Life Technologies, Grand Island, N.Y.), and (3) 250 μL of CytoStim (Miltenyi Biotech, Germany) diluted to a final concentration of 10 μL/mL in complete cell culture medium.
IL-17A cytokine expression was determined using 25 μL of the transferred supernatant diluted with 25 μL of Diluent 43 from the Human IL-17A V-PLEX™ kit (cat. # K151RFD-4, Meso Scale Discovery, Rockville, Md.). The assay was performed according to the manufacturer's instructions using included reagents. The IL-17A V-PLEX™ plates were read using the Meso Scale Discovery Imager (Model 1200).

Experiment [1] has as its target recombinant RORγ Ligand Binding Domain (LBD) protein (Homo sapiens, UniProt P51449). The experiment can be described thus: Radio-Ligand RORγ Binding Assay (Assay 1). As to conditions: read-out: RORγ Binding Ki Range* (nM) (Assay 1); cell-free competition with 25-hydroxy[26,27-3H]-cholesterol.
The target of experiment [2] is full-length RORγt in Jurkat cells (Homo sapiens, UniProt P51449). The conditions noted are these: read-out: RORγt5X IC50 Range* (nM) (Assay 2), luciferase reporter.

As to `CC(C)[C@H]1c2ncc(C(=O)N[C@@H](CO)c3ccc(S(C)(=O)=O)cc3)cc2CN1C[C@H]1CC[C@H](C(F)(F)F)CC1`, the results for the IC50 (with IL-17A production; in experiment [2]) were 100 to 200 nM and less than 100 nM, respectively. In addition, the inhibitory constant (Ki) in experiment [1] was less than 100 nM.

One may read the Ki as the equilibrium dissociation constant of an inhibitor or competing ligand from its target.
